Measured values taken from article PMC7723054.
Some of the results follow.

T1: LIN28A (human?, UniProt Q9H9Z2 1-209)
T1 sequence: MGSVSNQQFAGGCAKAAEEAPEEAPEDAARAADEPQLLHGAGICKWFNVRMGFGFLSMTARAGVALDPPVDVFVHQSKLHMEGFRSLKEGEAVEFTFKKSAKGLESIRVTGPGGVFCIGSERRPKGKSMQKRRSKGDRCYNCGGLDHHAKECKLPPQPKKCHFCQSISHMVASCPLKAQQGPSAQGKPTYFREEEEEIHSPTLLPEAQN

T2: CIRBP (Homo sapiens, UniProt Q14011 1-172)
T2 sequence: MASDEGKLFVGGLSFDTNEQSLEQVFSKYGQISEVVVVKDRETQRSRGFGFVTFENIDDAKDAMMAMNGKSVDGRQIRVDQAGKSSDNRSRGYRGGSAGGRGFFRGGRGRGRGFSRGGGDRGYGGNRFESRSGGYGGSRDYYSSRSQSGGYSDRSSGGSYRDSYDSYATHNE

T3: DHX36 (Homo sapiens, UniProt Q9H2U1 1-1008)
T3 sequence: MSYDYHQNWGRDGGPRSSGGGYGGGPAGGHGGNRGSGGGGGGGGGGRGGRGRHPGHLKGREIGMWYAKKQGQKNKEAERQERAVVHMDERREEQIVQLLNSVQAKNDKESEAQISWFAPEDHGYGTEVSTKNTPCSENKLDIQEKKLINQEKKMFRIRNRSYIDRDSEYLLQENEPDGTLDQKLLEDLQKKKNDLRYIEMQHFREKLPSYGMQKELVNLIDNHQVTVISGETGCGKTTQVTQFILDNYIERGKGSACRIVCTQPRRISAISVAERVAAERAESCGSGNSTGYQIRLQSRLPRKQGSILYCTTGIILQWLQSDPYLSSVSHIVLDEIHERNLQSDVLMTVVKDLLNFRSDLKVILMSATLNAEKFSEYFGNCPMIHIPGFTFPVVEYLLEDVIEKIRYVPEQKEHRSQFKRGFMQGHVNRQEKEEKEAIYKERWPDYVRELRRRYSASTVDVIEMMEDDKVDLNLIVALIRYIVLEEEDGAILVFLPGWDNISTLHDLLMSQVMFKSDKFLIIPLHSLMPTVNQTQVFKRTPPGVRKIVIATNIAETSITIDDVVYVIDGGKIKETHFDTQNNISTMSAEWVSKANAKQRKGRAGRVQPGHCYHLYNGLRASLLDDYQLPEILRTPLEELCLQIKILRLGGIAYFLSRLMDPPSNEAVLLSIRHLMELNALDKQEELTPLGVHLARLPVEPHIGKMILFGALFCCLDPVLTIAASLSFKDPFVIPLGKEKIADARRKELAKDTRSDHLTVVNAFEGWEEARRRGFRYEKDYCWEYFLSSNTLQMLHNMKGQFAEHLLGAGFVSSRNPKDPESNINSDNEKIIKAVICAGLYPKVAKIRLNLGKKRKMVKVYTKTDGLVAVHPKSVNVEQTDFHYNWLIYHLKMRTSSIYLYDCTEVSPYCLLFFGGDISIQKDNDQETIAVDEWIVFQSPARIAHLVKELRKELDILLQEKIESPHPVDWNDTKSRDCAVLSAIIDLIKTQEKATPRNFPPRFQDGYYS

B1: dU1A (structured_RNA)
RNA: GGGAGCCUUGUCACGGGGCGAAUAUUUCGGUGUACGAAGUUUCAGCAUUACGGUCCGCUGAAGCUUCGUGCAC
B2: hsa-mir-4664 (structured_RNA)
RNA: GGGACGGCUCGACACACCUACGUGUACAGGUGUACGAAGUUUCAGCCAAGUUAUCACUGAGCGACUUCGCUGAAGCUUCGUGCAC
B3: hsa-mir-4687 (structured_RNA)
RNA: GGGAAUAGCUCAAGGGUAAUUUGUGCCCGGUGUACGAAGUUUCAGCCCCAAACUUGGAGCACUUGACCUUUGGCGCUGAAGCUUCGUGCAC
B4: hsa-mir-3135a (structured_RNA)
RNA: GGGACAAACCAGAUGGCUUUAAAUGCACGGUGUACGAAGUUUCAGCAGUGGUGCAAUCUCAGUUCACUGCUGAAGCUUCGUGCAC
B5: hsa-mir-6501 (structured_RNA)
RNA: GGGAGCGCUAUGAGCCACAUCUAGCCAUGGUGUACGAAGUUUCAGCUUGGUGACAGCAGCAGUAGAGUUGCCAGGCUGAAGCUUCGUGCAC
B6: hsa-mir-4478 (structured_RNA)
RNA: GGGAAUCGGGUCACAGCGACAAUGAAACGGUGUACGAAGUUUCAGCAGCCUCCAAACCUGUAGACAGGGUCAUGCAGUACUAGGGGCGAGGCUGAAGCUUCGUGCAC
B7: hsa-mir-4508 (structured_RNA)
RNA: GGGAAGGGGAAAUGCCCGGUCUAGAAACGGUGUACGAAGUUUCAGCCGCGGAGCAGCGCUGGGUGCAGCGCCUGGCUGAAGCUUCGUGCAC
B8: hsa-mir-371b (structured_RNA)
RNA: GGGACAAAGUAGCCCCACUUAUGCCGAAGGUGUACGAAGUUUCAGCACUUUCACCAGAGAGCAGAAAGUGCUGAAGCUUCGUGCAC
B9: hsa-mir-1197 (structured_RNA)
RNA: GGGAACAAGACGGUCAGCUAUCAAUGCGGGUGUACGAAGUUUCAGCUGUACGCUUUAUUUGUGACGUAGGGCUGAAGCUUCGUGCAC
B10: hsa-mir-148b (structured_RNA)
RNA: GGGAAAUAUCGCAGACUUUCCGGCACUCGGUGUACGAAGUUUCAGCCAGGCUGUGGCUCUCUGAAAGUCGCUGAAGCUUCGUGCAC
B11: hsa-mir-484 (structured_RNA)
RNA: GGGAAGUAGGUCCCACUACACUACCCCAGGUGUACGAAGUUUCAGCCGAUAAACCCCUAAAUAGGGACUUUCCCGGCUGAAGCUUCGUGCAC

What follows are binders tested against U1A (Homo sapiens, UniProt P09012) (assay: FOREST: bead pull-down of RNA structure library v1, barcode microarray; U1A/LIN28A: 20 mM HEPES pH 7.5, 80 mM KCl, 20 mM NaCl, 10% glycerol, 2 mM DTT, 0.1 ug/uL BSA, 4 C; BG4/CIRBP/DHX36: 10 mM Tris-HCl pH 7.5, 100 mM KCl (or LiCl),; high values mean tight binding).
B1 was tested, and the binding signal was 0.618 z-score. B2 gave a binding signal of 0.586 z-score. For B3, the binding signal was 0.588 z-score. With B4 the binding signal was 0.573 z-score. B5 was tested, and the binding signal was 0.608 z-score. B6 showed a binding signal of 0.619 z-score. B7 was tested, and the binding signal was 0.617 z-score. Work on B8 yielded a binding signal of 0.614 z-score. Work on B9 yielded a binding signal of 0.604 z-score. Work on B10 yielded a binding signal of 0.588 z-score. Binder B11 has a binding signal of 0.582 z-score.

These binders were tested against T1, LIN28A in the same assay as above.
In the case of B1, the binding signal is reported as 1.03 z-score. Binder B2 has a binding signal of -0.0503 z-score. For B3, the binding signal was -0.515 z-score. Binder B4 has a binding signal of -0.474 z-score. B5 was tested, and the binding signal was 0.926 z-score. B6 showed a binding signal of 0.177 z-score. For B7, the binding signal was -1.41 z-score. In the case of B8, the binding signal is reported as -0.861 z-score. B9 showed a binding signal of 1.38 z-score. B10 was tested, and the binding signal was 0.966 z-score. Work on B11 yielded a binding signal of -0.201 z-score.

The binders below were run against T2, CIRBP in the same assay as above.
Work on B1 yielded a binding signal of -0.196 z-score. Binder B2 has a binding signal of -0.378 z-score. With B3 the binding signal was -1.37 z-score. Binder B4 has a binding signal of 1.14 z-score. With B5 the binding signal was -0.291 z-score. For B6, the binding signal was -1.27 z-score. For B7, the binding signal was -1.33 z-score. B8 was tested, and the binding signal was -0.473 z-score. Binder B9 has a binding signal of 0.0713 z-score. B10 gave a binding signal of 0.231 z-score. B11 was tested, and the binding signal was -0.314 z-score.

What follows are binders tested against T3, DHX36 in the same assay as above.
B1 showed a binding signal of 0.482 z-score. Binder B2 has a binding signal of -1.05 z-score. B3 gave a binding signal of -1.4 z-score. For B4, the binding signal was 0.69 z-score. Work on B5 yielded a binding signal of -0.0763 z-score. B6 gave a binding signal of 0.797 z-score. B7 showed a binding signal of -0.665 z-score. B8 was tested, and the binding signal was -0.308 z-score. For B9, the binding signal was 1.01 z-score. With B10 the binding signal was 0.0429 z-score. In the case of B11, the binding signal is reported as 0.0861 z-score.
